## AlphaSeq binding of Ab-14 light chain variants to a spike HR2 peptide

Reference: Li et al. 2023, doi:10.1038/s41467-023-39022-2. File: FLAb, binding data.

All variants were tested on one target, the spike HR2 peptide PDVDLGDISGINAS (SARS-CoV-2).

Parent scFv Ab-14: VH joined to VL by a 15-residue (Gly4Ser)3 linker. Changes lie in the light chain CDRs alone.
VH: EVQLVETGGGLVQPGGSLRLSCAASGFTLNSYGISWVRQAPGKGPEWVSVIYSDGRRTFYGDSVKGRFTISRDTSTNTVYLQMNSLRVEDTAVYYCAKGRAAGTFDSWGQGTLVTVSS
VL: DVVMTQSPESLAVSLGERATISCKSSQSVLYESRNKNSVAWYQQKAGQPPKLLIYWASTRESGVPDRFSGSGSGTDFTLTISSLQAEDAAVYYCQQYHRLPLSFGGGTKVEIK

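Phage display of a naive human antibody library on the peptide gave the parent. The variants were designed computationally from a first round of random CDR variants and then made and measured. Group labels follow the data file (En: ensemble of fine-tuned language models; GP: Gaussian process model; HC: hill climbing; Gen: genetic algorithm; Gibbs: Gibbs sampling; a sequence that several methods proposed may carry one label only). Affinity was read by AlphaSeq, a pooled yeast mating assay with surface-displayed partners. Pairs that bind mate more often; barcode pairs of the diploids are counted by sequencing. Scores were corrected for input abundance and mapped to Kd with protein pairs of known affinity run in the same pool. Each pool was mated in six replicate cultures.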

Each variant is given by its three light chain CDRs, as the data file delimits them; those of the parent are KSSQSVLYESRNKNSVA, WASTRES, QQYHRLPLS. Variants here have more than six changes. Each Kd is an estimate from the mating assay, the geometric mean of the replicates in which the pair was seen; lower is stronger. A pair that was not seen in any replicate is written "no signal"; this usually means weak binding, but a binder can also be missed. The list is sorted by this average, lowest first, undetected variants last.

CDR-L1,CDR-L2,CDR-L3,group,Kd,detected,control signals
TLGDVTRMESNKKNSIA,DMNNRAD,QQYHRLPLS,En_HC,380 pM,6 of 6,0 of 18
KLSASQLYQSRNSNAVA,NASTRMM,QQYHRLPLS,GP_Gibbs,580 pM,6 of 6,0 of 18
KLSQSMEYEDRNKNSVA,HASTREQ,QQYHRLPLM,GP_Gibbs,590 pM,6 of 6,1 of 18
QLSGMTAHESVKKQNVA,ERSTRGE,QQYNRLPLS,En_Gen,720 pM,6 of 6,0 of 18
MLSGVLHMLGQKKNSIA,DLVNRAN,QQYHRLPLM,En_Gen,790 pM,6 of 6,1 of 18
SLDMREEPYTALSGSVA,GSANRAI,QQYFRLPLS,En_Gibbs,920 pM,6 of 6,1 of 18
KLSPSEQYESRNKNSVA,HSSERES,QQYHRLPLS,GP_Gibbs,950 pM,6 of 6,1 of 18
TISTSMRYESSLKNAIA,NAQTRES,QQYARLPLS,En_HC,980 pM,6 of 6,2 of 18
KLDWSVMLWSRNKNSVA,QASTRMS,QDYHRLPLS,GP_Gibbs,1.1 nM,6 of 6,0 of 18
TISQLMLTESRNKNNVA,GESTRES,QCYHRLPLS,En_HC,1.2 nM,6 of 6,0 of 18
KSAYSEGYESGNKNSVA,SASTRSS,QQYHRLPLS,GP_Gibbs,1.2 nM,6 of 6,2 of 18
KVSVSQPYETRNKNSVA,NASTREE,QQYHRLPLS,GP_Gibbs,1.3 nM,6 of 6,2 of 18
KLYQNVGTMSHNKQSIA,DMERREE,QQYHRLPLS,En_HC,1.3 nM,6 of 6,2 of 18
KIGMTLNTLMHQKNNVA,DLVEREN,QQYHRLPLS,En_Gen,1.4 nM,6 of 6,0 of 18
KLEQGVDMESRNKNSVA,NAQMRES,QQYHRLPLS,GP_Gibbs,1.5 nM,6 of 6,0 of 18
GLSQSVEQLSRNKNSVA,NASQREV,QQYHRLPLS,GP_Gibbs,1.5 nM,6 of 6,1 of 18
QLYEMSYELSGKTHSVA,DNSTRGD,QQYFRLPLD,En_Gen,1.6 nM,6 of 6,0 of 18
KLMMSGLYESRNSNSVA,NASTREQ,QDYHRLPLS,GP_Gibbs,1.7 nM,6 of 6,1 of 18
HLGGMMTWESRAKNSVA,QSNTRAE,QQYHRLPLS,En_HC,1.7 nM,6 of 6,3 of 18
KVPQSWLYESRMKQSVA,NASERES,QQYHRLPLS,GP_Gibbs,1.9 nM,6 of 6,0 of 18
QIQSESEHPYKDKNSMA,DAECKAA,QQYFRLPLM,En_Gibbs,1.9 nM,6 of 6,1 of 18
KLEQGDLMESRNKNSVA,HASHRES,QQYHRLPLS,GP_Gibbs,2.0 nM,6 of 6,2 of 18
MMSQMYEGLSTSKNPVA,QVSTREE,QQYHRLPLS,En_HC,2.1 nM,6 of 6,0 of 18
KLSQSMLYEQRNKNSVA,NASLREV,QCYHRLPLS,GP_Gibbs,2.6 nM,6 of 6,3 of 18
KMSQSMGYGERNKNSVA,HASQRMS,QQYHRLPLS,GP_Gibbs,2.7 nM,6 of 6,0 of 18
TLYGLSMSMSKNKNNVA,EMTTREE,QQYDRLPLV,En_Gen,2.8 nM,6 of 6,0 of 18
KLAMILSMEAGTYHGVA,DAEHKAD,QQYNRLPLS,En_Gibbs,3.0 nM,6 of 6,0 of 18
KISQSEYYEDRNKMSVA,SASTRLS,QQYHRLPLS,GP_Gibbs,3.1 nM,6 of 6,4 of 18
KLLSLSLHQTGKLNSVA,DATITQQ,QQYMSLPLM,En_Gibbs,3.2 nM,6 of 6,0 of 18
IIGQSMLYESATHNSIA,QTSTREE,QQYHHLPLS,En_HC,3.2 nM,6 of 6,0 of 18
MISGSVMQESRLKNSVA,QTTTRES,QQYDRLPLS,En_HC,3.3 nM,6 of 6,1 of 18
KISMSYRYQSQNKNSIA,EMSRREN,QQYHRLPLS,En_HC,4.6 nM,6 of 6,0 of 18
KLRMMTLTGGYFKNSVA,QAETREN,QSYHRLPLS,En_HC,4.6 nM,6 of 6,0 of 18
KIFYRQEEDIRHESSIA,NGMARVK,QQYYMLPLS,En_Gibbs,4.7 nM,6 of 6,0 of 18
NVGNEDPGQWYMHDSIA,GSSLRAE,QQYWRLPLL,En_Gibbs,5.0 nM,5 of 6,0 of 18
RMNKFMSGATEAKNSVA,GAEHRAQ,QSYHRLPLS,En_Gibbs,5.0 nM,6 of 6,2 of 18
IVSQLMLWGYHAKNSIA,EAETRIN,QQYERLPLF,En_Gen,5.1 nM,1 of 6,0 of 18
TISMHTSLFSQTINNVA,EVSTREQ,QQYDRLPLI,En_Gen,5.2 nM,6 of 6,1 of 18
KISQMVRVGQTHSNSIA,EEATRAK,QQYHRLPLA,En_Gen,5.4 nM,6 of 6,1 of 18
HIELGTWGVGKFDSSVA,HASQRQE,QQYDQLPLT,En_Gibbs,5.7 nM,6 of 6,1 of 18
RIAEQYFEYMHNINNVA,EAECKQY,QQYAHLPLL,En_Gibbs,5.7 nM,6 of 6,0 of 18
KIGMTLNQMMHKKNNVA,DLVTREQ,QQYHRLPLS,En_Gen,5.9 nM,6 of 6,1 of 18
HLSDTVMQGSYYRNSVA,QESTRAD,QQYHHLPLS,En_HC,6.8 nM,6 of 6,0 of 18
TISQVMNTMTRHGNNVA,DLAERES,QQYFRLPLS,En_Gen,6.9 nM,6 of 6,1 of 18
KLYDMAAVTMNNIRNVA,DNDTREQ,QQYHRLPLS,En_Gen,7.4 nM,6 of 6,1 of 18
TISGVMMQMSHSKNNVA,EVSMRLE,QQYFRLPLE,En_Gen,8.3 nM,6 of 6,0 of 18
IISQSVMFEQTLINSVA,NAQTRET,QQYHRLPLS,En_HC,8.4 nM,6 of 6,1 of 18
RFDMAMPYAHSNINSIA,EKAIQAD,QQYDRLPLS,En_Gibbs,8.6 nM,6 of 6,1 of 18
QLSMITGHASMIKNNVA,EMETREN,QQYDRLPLS,En_Gen,8.7 nM,4 of 6,0 of 18
SLRAMILDWDNKMQNIA,DVHMREQ,QQYFRLPIV,En_Gibbs,11 nM,6 of 6,1 of 18
MLAQMWGIGMKAKNSVA,QASIRFN,QQYDRLPLI,En_Gen,12 nM,1 of 6,1 of 18
KLIQSVAMSSRNKDNIA,DNSTREY,QQYHRLPLS,En_HC,13 nM,6 of 6,2 of 18
MISQMYNMGQFAINSVA,QASERNE,QQYDRLPLT,En_Gen,17 nM,5 of 6,0 of 18
MLTMFNNENQGWSNNIA,DTNNVQE,QQYSRLPFA,En_Gibbs,18 nM,6 of 6,0 of 18
TLMHHQDRYDNWKKSIA,EAIIRES,QQYSRLPLA,En_Gibbs,22 nM,6 of 6,2 of 18
TIGQVMHYESRNRNSVA,QTSTREE,QDYDRLPLS,En_HC,24 nM,5 of 6,0 of 18
TLHANIQYGGIMWSSIA,GNVQRAN,QQYTRLPLS,En_Gibbs,25 nM,6 of 6,1 of 18
KIYAATMLETHDKNSIA,DLTNRGN,QQYHRLPLS,En_HC,30 nM,6 of 6,0 of 18
NMKVGLNFEDIQHQAIA,EVDERES,QQYARLPLT,En_Gibbs,32 nM,6 of 6,0 of 18
SVRQSMDGESRNKNSVA,HQSTRED,QHYHRLPLS,En_HC,36 nM,6 of 6,2 of 18
VLSDTIENWADEADNIA,DATETSK,QQYYRLPLS,En_Gibbs,38 nM,6 of 6,0 of 18
KLSGLMSSSKFQKDNVA,ENNTREK,QQYERLPLS,En_Gen,39 nM,3 of 6,1 of 18
IVSQLMLWGYHAKNSIA,EAEMRTN,QQYDRLPLF,En_Gen,50 nM,5 of 6,1 of 18
MVSQLMVWGLHTKNSIA,EAQTRLN,QQYDRLPLF,En_Gen,92 nM,4 of 6,0 of 18
KVSSFMRGLMMRKDSIA,DNETRSQ,QQYDRLPLS,En_Gen,98 nM,5 of 6,2 of 18
KLTKYQYNWTSHYQAVA,ESNMRAT,QSYYRLPFS,En_Gibbs,110 nM,6 of 6,1 of 18
KLQQSKLYLSRWKNSVA,HASVRES,QQYHRLPLS,GP_Gibbs,120 nM,6 of 6,1 of 18
TIGQTLMTGVRNRSNVA,EVSQRLN,QQYDRLPLL,En_Gen,350 nM,4 of 6,0 of 18
KLREVNHVESKQKNNVA,DNSTRES,QDYHRLPLS,En_HC,420 nM,6 of 6,2 of 18
NLSIEMSYYYENRYNIA,EMTVREY,QHYSRLPLA,En_Gibbs,no signal,0 of 6,0 of 18
MFSSLMEYGSRYKNSVA,QASTREN,QQYHWLPLS,En_HC,no signal,0 of 6,0 of 18
KLSDPMVEWIANQSAVA,EHADTQH,QQYARLPLT,En_Gibbs,no signal,0 of 6,0 of 18

The last 7 entries again:

| CDR-L1 | CDR-L2 | CDR-L3 | group | Kd | detected | control signals |
|---|---|---|---|---|---|---|
| KLTKYQYNWTSHYQAVA | ESNMRAT | QSYYRLPFS | En_Gibbs | 110 nM | 6 of 6 | 1 of 18 |
| KLQQSKLYLSRWKNSVA | HASVRES | QQYHRLPLS | GP_Gibbs | 120 nM | 6 of 6 | 1 of 18 |
| TIGQTLMTGVRNRSNVA | EVSQRLN | QQYDRLPLL | En_Gen | 350 nM | 4 of 6 | 0 of 18 |
| KLREVNHVESKQKNNVA | DNSTRES | QDYHRLPLS | En_HC | 420 nM | 6 of 6 | 2 of 18 |
| NLSIEMSYYYENRYNIA | EMTVREY | QHYSRLPLA | En_Gibbs | no signal | 0 of 6 | 0 of 18 |
| MFSSLMEYGSRYKNSVA | QASTREN | QQYHWLPLS | En_HC | no signal | 0 of 6 | 0 of 18 |
| KLSDPMVEWIANQSAVA | EHADTQH | QQYARLPLT | En_Gibbs | no signal | 0 of 6 | 0 of 18 |

Values of this round are not directly comparable with the first-round values of the same sequences. The authors' rule: three or more of the six replicates give a measured affinity, fewer mean a poor binder. The parent sequence was in this pool as ten entries: three were never detected, three once, and four in most replicates, with averages from 2.2 nM to 240 nM. Background: pairings of all light chain designs with three empty control strains gave a value in 4% of cases (median 430 nM, 5th percentile 38 nM). Values in that range, when seen in few replicates, are hard to tell from nonspecific mating. The control count says in how many pairings with the empty strains this scFv gave a signal.